Reference: ChEMBL document CHEMBL4371007, “Biased Ligands of G Protein-Coupled Receptors (GPCRs): Structure-Functional Selectivity Relationships (SFSRs) and Therapeutic Potential” (J Med Chem, 2018)

Sequences of proteins named here, by UniProt entry; tags and fusion partners are left off.
UniProt P41146, whole entry: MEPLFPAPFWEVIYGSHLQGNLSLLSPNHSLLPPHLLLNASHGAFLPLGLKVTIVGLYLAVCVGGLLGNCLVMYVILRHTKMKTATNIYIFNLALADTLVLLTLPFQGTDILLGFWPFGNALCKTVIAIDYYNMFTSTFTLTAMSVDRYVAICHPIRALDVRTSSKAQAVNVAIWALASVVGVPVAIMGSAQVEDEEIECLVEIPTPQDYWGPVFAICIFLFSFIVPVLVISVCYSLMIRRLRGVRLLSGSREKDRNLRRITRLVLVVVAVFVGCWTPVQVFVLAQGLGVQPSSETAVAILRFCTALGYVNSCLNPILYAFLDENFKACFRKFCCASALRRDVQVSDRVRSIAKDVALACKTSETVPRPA

Experiments:
[1] = molecular target: Nociceptin receptor (Homo sapiens) (UniProt P41146); assay: Agonist activity at YFP-fused human NOPR expressed in HEK293 cells assessed as inhibition of forskolin-mediated cAMP accumulation measured immediately by luminescence assay relative to control
[2] = molecular target: Nociceptin receptor (Homo sapiens) (UniProt P41146); assay: Agonist activity at YFP-fused human NOPR expressed in HEK293 cells assessed as increase in beta-arrestin-2 recruitment measured for 1 secs every min for 2 mins by BRET assay relative to control
[3] = molecular target: Nociceptin receptor (Homo sapiens) (UniProt P41146); assay: Agonist activity at YFP-fused human NOPR expressed in HEK293 cells assessed as increase in beta-arrestin-1 recruitment measured for 1 secs every min for 2 mins by BRET assay relative to control

Compound | Emax [1] [%] | Emax [2] [%] | Emax [3] [%]
CCn1c(=O)n([C@@H]2CCN(CC3CCCC4CCCCC43)C[C@H]2CO)c2ccccc21 (some centres undefined) | 74 | 14 | 28
CCn1c(=O)n([C@@H]2CCN(C3CCC(C(C)C)CC3)C[C@H]2CO)c2ccccc21 (some centres undefined) | 77 | 24 | 31
CCn1c(=O)n([C@@H]2CCN(CC3CCCCCCC3)C[C@H]2CO)c2ccccc21 | -10 | 5.1 | 19
